Binding of CDR-mutated scFvs to a peptide of the spike HR2 region

The target is the same throughout: PDVDLGDISGINAS, from the HR2 region of SARS-CoV-2 spike.

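Variants in AAYL51 differ from the parent at up to three CDR positions; double and triple changes were sampled at random. The assay is AlphaSeq: two haploid yeast populations carry antibody and antigen on their surface. After mating in shaken culture at 30 °C for 16 h, diploids were selected and their barcode pairs sequenced. The ratio of observed to expected reads was calibrated, replicate by replicate, on BCL2-family standards whose Kd was known from biolayer interferometry. There are three technical replicates.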

Each scFv is VL, the linker GGGGSGGGGSGGGGS, VH, as in the parent Ab-91, and differs from it in the CDRs of the heavy chain only.
VL: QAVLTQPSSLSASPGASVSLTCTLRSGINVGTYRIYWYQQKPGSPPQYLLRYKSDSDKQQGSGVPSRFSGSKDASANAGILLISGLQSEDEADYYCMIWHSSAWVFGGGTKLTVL
VH: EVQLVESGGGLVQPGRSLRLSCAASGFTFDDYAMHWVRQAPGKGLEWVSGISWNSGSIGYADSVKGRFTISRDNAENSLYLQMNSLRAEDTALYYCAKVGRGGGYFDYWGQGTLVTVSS

The whole VH of each variant is written out. Scale: log10 of Kd in nM, estimated from mating counts; low values are strong binders. The mean shown is taken over the replicates in which the pair was detected. "n.d." means that the variant was in the library but no mating with the target was seen in that replicate; the authors take this as a sign of poor binding, and no number exists.

VH,"log10 Kd, replicates","mean, log10 nM",control signals
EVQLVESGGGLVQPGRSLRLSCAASGFHFDDYAMHWVRQAPGKGLEWVSGISWNSGSAGYADSVKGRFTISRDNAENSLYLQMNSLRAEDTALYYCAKEGRGGGYFDYWGQGTLVTVSS,n.d. / n.d. / n.d.,n.d.,0 of 9
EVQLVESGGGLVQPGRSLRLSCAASGFTFDDYAEHWVRQAPGKGLEWVSLISWNSGSIGYADSVKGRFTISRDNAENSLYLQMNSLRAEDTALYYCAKIGRGGGYFDYWGQGTLVTVSS,4.22 / 4.93 / 5.32,4.82,4 of 9 (4.72)
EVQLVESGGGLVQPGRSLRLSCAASGFTFDDYAMHWVRQAPGKGLEWVSGISWNSGSIGGADSVKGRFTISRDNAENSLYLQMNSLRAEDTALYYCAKGGRGGGYNDYWGQGTLVTVSS,n.d. / 5.72 / n.d.,5.72,0 of 9
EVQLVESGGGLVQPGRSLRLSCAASGFTFDDYAMHWVRQAPGKGLEWVSGISCNSGSIGYADSVEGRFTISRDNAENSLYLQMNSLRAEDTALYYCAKVGRGGGYFDHWGQGTLVTVSS,n.d. / n.d. / n.d.,n.d.,1 of 9 (3.51)
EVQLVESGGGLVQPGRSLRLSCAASGFTFDDYAMHWVRQAPGKGLEWVSGISWNSGSIGYADSVKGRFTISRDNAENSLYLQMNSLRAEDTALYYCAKMGRGGGYFIYWGQGTLVTVSS,n.d. / n.d. / n.d.,n.d.,0 of 9
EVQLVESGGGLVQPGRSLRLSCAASGFTFDDYAMHWVRQAPGKGLEWVSGINWNSVSIGYADSVKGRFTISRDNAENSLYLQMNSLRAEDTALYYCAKVGRGMGYFDYWGQGTLVTVSS,1.91 / n.d. / 1.81,1.86,0 of 9
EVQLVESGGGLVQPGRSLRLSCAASGFTFDDYHMHWVRQAPGKGLEWVSGGSWNSGSIGYADSVKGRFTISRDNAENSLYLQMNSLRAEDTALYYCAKVGRGGGYFDYWGQGTLVTVSS,n.d. / n.d. / n.d.,n.d.,1 of 9 (3.10)
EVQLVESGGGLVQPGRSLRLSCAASGFTFDDYAMRWVRQAPGKGLEWVSGIKWNSGSIGYADSVSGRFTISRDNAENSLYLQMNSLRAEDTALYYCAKVGRGGGYFDYWGQGTLVTVSS,4.59 / n.d. / n.d.,4.59,2 of 9 (4.51)
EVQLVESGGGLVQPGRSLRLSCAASGLSFDDYAMHWVRQAPGKGLEWVSGISWNSGSIMYADSVKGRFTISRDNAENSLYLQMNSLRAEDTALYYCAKVGRGGGYFDYWGQGTLVTVSS,n.d. / n.d. / n.d.,n.d.,3 of 9 (3.90)
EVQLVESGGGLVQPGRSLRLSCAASGFTFDDYAAHWVRQAPGKGLEWVSNISWNSGSIGYADSMKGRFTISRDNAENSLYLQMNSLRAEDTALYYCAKVGRGGGYFDYWGQGTLVTVSS,4.85 / n.d. / 4.65,4.75,8 of 9 (5.31)
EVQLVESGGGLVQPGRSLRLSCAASLFTFDDYAMHWVRQAPGKGLEWVSGISWNSGSIGNADPVKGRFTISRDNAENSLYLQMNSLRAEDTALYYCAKVGRGGGYFDYWGQGTLVTVSS,5.23 / n.d. / n.d.,5.23,1 of 9 (3.28)
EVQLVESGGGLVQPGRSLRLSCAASGFTFDDAAMHWVRQAPGKGLEWVSGILWNSGNIGYADSVKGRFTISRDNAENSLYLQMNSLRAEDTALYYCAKVGRGGGYFDYWGQGTLVTVSS,n.d. / n.d. / n.d.,n.d.,0 of 9
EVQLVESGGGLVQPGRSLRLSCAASGFTFDDYAMHWVRQAPGKGLEWVSGISWNSGSIGYADSPKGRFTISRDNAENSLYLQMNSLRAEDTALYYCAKGGRGGGYFKYWGQGTLVTVSS,n.d. / n.d. / 3.76,3.76,0 of 9
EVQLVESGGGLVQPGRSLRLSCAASGFTFDDYAMHWVRQAPGKGLEWVSGISWRSGSIGYALSVYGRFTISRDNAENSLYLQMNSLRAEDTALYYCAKVGRGGGYFDYWGQGTLVTVSS,4.21 / n.d. / n.d.,4.21,1 of 9 (4.40)
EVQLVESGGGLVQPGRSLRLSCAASGFTFDDYAMPWVRQAPGKGLEWVSGRSWNSGSIGYADSGKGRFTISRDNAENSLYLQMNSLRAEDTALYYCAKVGRGGGYFDYWGQGTLVTVSS,n.d. / n.d. / n.d.,n.d.,0 of 9
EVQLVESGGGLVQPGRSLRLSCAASGFTSDDYAKHWVRQAPGKGLEWVSGISWNSGSIGYADSVMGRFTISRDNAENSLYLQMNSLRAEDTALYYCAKVGRGGGYFDYWGQGTLVTVSS,n.d. / n.d. / n.d.,n.d.,4 of 9 (3.95)
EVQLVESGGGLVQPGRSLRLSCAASGYTFDDYAMHWVRQAPGKGLEWVSGISWNSGYIGYADSVKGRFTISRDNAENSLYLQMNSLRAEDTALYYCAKVGRGGGYFDYWGQGTLVTVSS,2.37 / 2.55 / 1.87,2.26,0 of 9
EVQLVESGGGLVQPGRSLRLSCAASGFTFDDYAMVWVRQAPGKGLEWVSGISWNSGSEGYADSVKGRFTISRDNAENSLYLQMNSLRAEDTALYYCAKVMRGGGYFDYWGQGTLVTVSS,n.d. / n.d. / n.d.,n.d.,0 of 9
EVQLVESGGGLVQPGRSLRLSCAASFFTFDDYAVHWVRQAPGKGLEWVSGISWNSGSIGYADSVKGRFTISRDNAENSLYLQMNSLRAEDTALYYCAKVCRGGGYFDYWGQGTLVTVSS,n.d. / n.d. / n.d.,n.d.,1 of 9 (4.16)

Repeated from above, the 2 best binders with a signal in all replicates:

| VH | log10 Kd, replicates | mean, log10 nM | control signals |
|---|---|---|---|
| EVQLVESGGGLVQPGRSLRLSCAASGYTFDDYAMHWVRQAPGKGLEWVSGISWNSGYIGYADSVKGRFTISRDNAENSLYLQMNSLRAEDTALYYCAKVGRGGGYFDYWGQGTLVTVSS | 2.37 / 2.55 / 1.87 | 2.26 | 0 of 9 |
| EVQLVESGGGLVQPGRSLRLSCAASGFTFDDYAEHWVRQAPGKGLEWVSLISWNSGSIGYADSVKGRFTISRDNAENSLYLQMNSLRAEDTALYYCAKIGRGGGYFDYWGQGTLVTVSS | 4.22 / 4.93 / 5.32 | 4.82 | 4 of 9 (4.72) |

Three control strains display no target. For library AAYL51, 21% of the pairings with them gave a signal, with a median of 4.54 and one signal in twenty below 3.26, so weak values seen in few replicates may be background. For each scFv, signals with the empty controls are counted beside the result, with their mean in brackets.

From the AlphaSeq antibody data of Engelhart et al. 2022 (doi:10.1038/s41597-022-01779-4), copy in the FLAb collection.